The test can be described thus: Compound was evaluated for its ability to exhibit alkylating property toward DNA at 5 mM in 180 min. Type of test: functional. An outline of the steps:
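Alkylation was measured with PM2 covalently closed circular DNA (1.2 A280 units, 90% CCC) and 5 mM agent in 200 µL at 37 °C. Aliquots were taken into 20 mM potassium phosphate pH 11.8, 0.4 mM EDTA and 0.5 µg/mL ethidium, heated at 96 °C for 4 min, then rapidly cooled. Fluorescence loss relative to control gives the extent of alkylation.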

On to `ClCCOP(OCCCl)OCCCl`, for which the Alkylation is 0%.

(Values after ChEMBL document CHEMBL1121477, “Noval antitumor nitrosoureas and related compounds and their reactions with DNA” (1980).)
